Cyclic peptide permeability, from CycPeptMPDB

Source: CycPeptMPDB (Li et al. 2023), which took these values from Townsend et al. 2020, doi:10.26434/chemrxiv.13335941.v1.

PAMPA is the parallel artificial membrane permeability assay, which has no cells and reads passive diffusion.
Permeability is given as log10 of P in cm/s; higher (less negative) is more permeable.

{"smiles": "CCCN1CC(=O)N[C@H](CC(C)C)C(=O)N[C@@H](Cc2ccccc2)CC(=O)N2CCC[C@H]2C(=O)N[C@H](CC(C)C)C(=O)N[C@@H](Cc2ccccc2)C(=O)N2CCC[C@H]2C1=O", "PAMPA (log10 cm/s)": "-6.10"}
{"smiles": "CC(C)C[C@H]1NC(=O)[C@H]2CCCN2C(=O)CN(Cc2ccccc2)C(=O)[C@@H](CC(C)C)NC(=O)[C@@H](C)NC(=O)[C@@H]2CCCN2C(=O)[C@H](Cc2ccccc2)NC1=O", "PAMPA (log10 cm/s)": "-6.98"}
{"smiles": "CC(C)C[C@@H]1NC(=O)[C@@H](CC(C)C)N(C)C(=O)[C@H](C)NC(=O)[C@@H]2CCCN2C(=O)[C@H](Cc2ccccc2)NC(=O)CN(Cc2ccccc2)C(=O)[C@@H]2CCCN2C1=O", "PAMPA (log10 cm/s)": "-5.69"}
{"smiles": "CC(C)C[C@H]1NC(=O)C[C@H](Cc2ccccc2)NC(=O)[C@H]2CCCN2C(=O)[C@H](Cc2ccccc2)NC(=O)[C@@H](CC(C)C)NC(=O)[C@H]2CCCN2C(=O)C[C@H](Cc2ccccc2)NC1=O", "PAMPA (log10 cm/s)": "-5.87"}
{"smiles": "CC(C)C[C@@H]1C(=O)N[C@H](CC(C)C)C(=O)N2CCC[C@H]2C(=O)N[C@H](CC(C)C)C(=O)N[C@@H](Cc2ccccc2)C(=O)N[C@H](C)C(=O)N1C", "PAMPA (log10 cm/s)": "-5.88"}
{"smiles": "CC(C)C[C@@H]1C(=O)N(C)[C@@H](CC(C)C)C(=O)N2CCC[C@@H]2C(=O)N(C)[C@H](CC(C)C)C(=O)N[C@@H](Cc2ccccc2)C(=O)N[C@@H](C)C(=O)N1C", "PAMPA (log10 cm/s)": "-5.03"}
{"smiles": "CC(C)C[C@H]1C(=O)N(Cc2ccccc2)CC(=O)N2CCC[C@@H]2C(=O)N(C)[C@@H](CC(C)C)C(=O)N[C@@H](Cc2ccccc2)C(=O)N[C@@H](Cc2ccccc2)CC(=O)N1C", "PAMPA (log10 cm/s)": "-5.37"}
{"smiles": "CCCN1CC(=O)N(C)[C@H](CC(C)C)C(=O)N(C)[C@@H](CC(C)C)C(=O)N2CCC[C@@H]2C(=O)N(C)[C@@H](CC(C)C)C(=O)N[C@@H](Cc2ccccc2)C(=O)N2CCC[C@H]2C1=O", "PAMPA (log10 cm/s)": "-4.96"}
{"smiles": "CC(C)C[C@@H]1NC(=O)C[C@H](Cc2ccccc2)NC(=O)[C@@H]2CCCN2C(=O)[C@H](Cc2ccccc2)NC(=O)[C@H](CC(C)C)N(C)C(=O)[C@@H]2CCCN2C(=O)CN(Cc2ccccc2)C1=O", "PAMPA (log10 cm/s)": "-5.64"}
{"smiles": "CC(C)C[C@@H]1C(=O)N(C)[C@@H](CC(C)C)C(=O)N2CCC[C@@H]2C(=O)N[C@H](CC(C)C)C(=O)N[C@@H](Cc2ccccc2)C(=O)N2CCC[C@@H]2C(=O)N[C@@H](C)C(=O)N1C", "PAMPA (log10 cm/s)": "-6.19"}
{"smiles": "CC(C)C[C@@H]1C(=O)N[C@H](CC(C)C)C(=O)N2CCC[C@H]2C(=O)N(C)[C@H](CC(C)C)C(=O)N[C@@H](Cc2ccccc2)C(=O)N2CCC[C@@H]2C(=O)N[C@@H](Cc2ccccc2)CC(=O)N1C", "PAMPA (log10 cm/s)": "-5.11"}
{"smiles": "CC(C)C[C@@H]1NC(=O)[C@@H](C)N(C)C(=O)[C@H]2CCCN2C(=O)[C@H](Cc2ccccc2)NC(=O)[C@@H](CC(C)C)N(C)C(=O)[C@@H]2CCCN2C(=O)[C@@H](CC(C)C)N(C)C1=O", "PAMPA (log10 cm/s)": "-5.12"}
{"smiles": "CC(C)C[C@@H]1NC(=O)[C@@H](CC(C)C)N(C)C(=O)[C@H](C)N(C)C(=O)[C@H]2CCCN2C(=O)[C@H](Cc2ccccc2)NC(=O)[C@@H](CC(C)C)N(C)C(=O)[C@H]2CCCN2C1=O", "PAMPA (log10 cm/s)": "-5.04"}
{"smiles": "CC(C)C[C@H]1NC(=O)[C@@H]2CCCN2C(=O)C[C@H](Cc2ccccc2)NC(=O)[C@H](CC(C)C)N(C)C(=O)[C@H](C)N(C)C(=O)[C@H](Cc2ccccc2)NC1=O", "PAMPA (log10 cm/s)": "-5.69"}
{"smiles": "CCCN1CC(=O)N(C)[C@H](CC(C)C)C(=O)N(C)[C@H](CC(C)C)C(=O)N2CCC[C@@H]2C(=O)N(C)[C@@H](CC(C)C)C(=O)N[C@@H](Cc2ccccc2)C(=O)N2CCC[C@H]2C1=O", "PAMPA (log10 cm/s)": "-5.13"}
{"smiles": "CC(C)C[C@@H]1NC(=O)[C@@H](C)NC(=O)[C@H](Cc2ccccc2)NC(=O)[C@@H](CC(C)C)NC(=O)[C@H]2CCCN2C(=O)CN(Cc2ccccc2)C1=O", "PAMPA (log10 cm/s)": "-5.99"}
{"smiles": "CCCN1CC(=O)N(C)[C@H](CC(C)C)C(=O)N[C@H](CC(C)C)C(=O)N2CCC[C@@H]2C(=O)N(C)[C@@H](CC(C)C)C(=O)N[C@@H](Cc2ccccc2)C1=O", "PAMPA (log10 cm/s)": "-4.89"}
{"smiles": "CC(C)C[C@@H]1NC(=O)[C@H]2CCCN2C(=O)[C@H](CC(C)C)N(C)C(=O)[C@@H](CC(C)C)NC(=O)C[C@H](Cc2ccccc2)NC(=O)[C@@H]2CCCN2C(=O)[C@H](Cc2ccccc2)NC1=O", "PAMPA (log10 cm/s)": "-5.39"}
{"smiles": "CC(C)C[C@@H]1NC(=O)C[C@H](Cc2ccccc2)NC(=O)[C@@H]2CCCN2C(=O)[C@H](Cc2ccccc2)NC(=O)[C@@H](CC(C)C)N(C)C(=O)[C@H]2CCCN2C(=O)[C@@H](CC(C)C)NC1=O", "PAMPA (log10 cm/s)": "-5.12"}
{"smiles": "CC(C)C[C@H]1NC(=O)C[C@H](Cc2ccccc2)NC(=O)[C@H](Cc2ccccc2)NC(=O)CN(Cc2ccccc2)C(=O)[C@@H]2CCCN2C(=O)[C@@H](CC(C)C)NC1=O", "PAMPA (log10 cm/s)": "-5.47"}
{"smiles": "CC(C)C[C@@H]1C(=O)N[C@H](CC(C)C)C(=O)N2CCC[C@H]2C(=O)N(C)[C@H](CC(C)C)C(=O)N[C@@H](Cc2ccccc2)C(=O)N2CCC[C@@H]2C(=O)N[C@H](C)C(=O)N1C", "PAMPA (log10 cm/s)": "-5.24"}
{"smiles": "CC(C)C[C@@H]1NC(=O)[C@H](C)NC(=O)[C@H](Cc2ccccc2)NC(=O)CN(Cc2ccccc2)C(=O)[C@@H]2CCCN2C(=O)[C@@H](CC(C)C)NC1=O", "PAMPA (log10 cm/s)": "-5.68"}
{"smiles": "CC(C)C[C@H]1C(=O)N(C)[C@@H](CC(C)C)C(=O)N2CCC[C@H]2C(=O)N(Cc2ccccc2)CC(=O)N[C@@H](Cc2ccccc2)C(=O)N2CCC[C@H]2C(=O)N[C@H](C)C(=O)N1C", "PAMPA (log10 cm/s)": "-5.40"}
{"smiles": "CC(C)C[C@@H]1C(=O)N[C@@H](Cc2ccccc2)C(=O)N2CCC[C@@H]2C(=O)N[C@@H](Cc2ccccc2)CC(=O)N[C@H](CC(C)C)C(=O)N[C@@H](Cc2ccccc2)CC(=O)N2CCC[C@@H]2C(=O)N1C", "PAMPA (log10 cm/s)": "-5.86"}

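Conditions beyond the assay type are not listed; see the original paper. Other peptides of the study may be missing here. Entries at the database's floor value (log10 P of -10) are not listed.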